Data published in US20110135603A1, “INHIBITORS OF PHOSPHATIDYLINOSITOL 3-KINASE” (VERTEX PHARMACEUTICALS INCORPORATED, priority 2008, published 2011).

Experiment: Evaluation of Brain/Plasma Concentrations
Details: Sprague-Dawley rats
Experimental: Selected compounds of the invention were evaluated for their ability to cross the blood-brain barrier. Accordingly, a compound of the invention was administered to Sprague-Dawley rats [10 mg/kg as a 1 mg/mL 0.5% MC solution] via oral intragastric delivery. Two hours after compound administration, the rats were anaesthetized by intramuscular administration of a 2 mL/kg Ketamine/Rompun/Acepromazine cocktail and placed onto necropsy table. The abdominal cavity was then opened with a V-cut and 300 microliters of blood was drawn directly from left ventricle for plasma concentration analysis. The blood sample was stored on ice in a 1.5 mL Eppendorf tube (containing K2EDTA) and subsequently centrifuged for 2 minutes at 2000 rpm. After centrifugation, 110 microliters of plasma was transferred to a fresh tube and stored at −70° C. until analysis. The rat was perfused with cold saline (containing 50 IU of heparin) at 20 mL/min from an infusion pump through the left ventricle of the heart. Immediately after starting the perfusion, a small cut in the right atria was made so that heparinized saline would flow through the body. The perfusion was continued until the liver appeared pale in color (about 60 mL of cold saline). The brain was removed and placed on ice, blotted dry, weighed, placed in a tube, frozen with liquid nitrogen, and stored at −70° C. until further analysis was performed.
In order to determine compound concentration in the plasma, the blood sample was prepared by protein precipitation with addition of acetonitrile at a ratio of 1:4. After vortexing and centrifugation, the supernatant was analyzed by high performance liquid chromatography-tandem mass spectrometry in positive Atmospheric Pressure Chemical Ionization (APCI) ionization mode. […] The calibration curve was analyzed and the instrument response (area counts for compound of interest/Area Counts for internal Standard) are used to generate a calibration curve. The instrument response for study samples were compared to the calibration curve and the concentration back-calculated from the curve. […]

## CCCOCCNC(=O)Nc1nc2ccc(-c3cncc(C(F)(F)F)c3)cc2s1
10 mg/kg oral intragastric in 0.5% MC, two hours after administration, average of two or three animals
  Brain Conc.: 169 ng/g
10 mg/kg oral intragastric in 0.5% MC, two hours after administration, based on a density of rat plasma of 1.0 g/mL
  Plasma Conc.: 390 ng/mL
10 mg/kg oral, two hours, average brain/plasma ratio based on data obtained for each animal
  Brain/Plasma Ratio: 0.4
